# Measurements from PMC7083851, “Extended pharmacodynamic responses observed upon PROTAC-mediated degradation of RIPK2” (Communications Biology, 2020).
# System: human PBMCs
smiles,measurement,value
CN[C@@H](C)C(=O)N[C@H](C(=O)N1C[C@@H](NC(=O)c2cnc(N3CCN(CCCOc4cc5ncnc(Nc6n[nH]c(C)c6C)c5cc4S(=O)(=O)C(C)(C)C)CC3)cn2)C[C@H]1C(=O)Nc1c(F)cccc1F)C(C)(C)C [PROTAC 6],"effect on cell viability, in words",no
